Test system: isolate 205y
Experiment: Growth of isolate 205y in different organic solvents and concentrations
Type: cell-based, Bacillus sphaericus 205y
Design: Growth of isolate 205y: key to the marks not given beside the values
Conditions: for Growth of isolate 205y: growth visually determined
Protocol: The Bacillus sphaericus 205y culture could be obtained from Enzyme and Microbial Technology Research Department of Biochemistry and Microbiology, Faculty of Science and Environmental Studies, University Putra Malaysia. One gram of soil is resuspended in 10 ml basal mineral […] supplemented with selected hydrocarbon (0.1% v/v). The basal media contained (w/v) K2HPO4 0.5%, NH4Cl (1.0%), Na2SO4 (2%), KNO3 (2%), MgSO4.7H2O (0.2%).
Selected hydrocarbons would either be benzene, toluene or mixture of both as their sole carbon and energy source. Pure isolates were prescreened in media spiked with 1% v/v hydrocarbon. Isolates were grouped into groups of good, moderate, acceptable and negative, based on the turbidity of the media (Inoue et al., 1989). Non-inoculated controls were also used to ensure that the turbidity is due to growth.

With `CCc1ccccc1` [Ethylbenzene] the “Growth of 205y in solvent (in words)” value was “good growth”, the “Growth of isolate 205y” value (Hydrocarbon 1% (v/v)) was “++” and the “Growth of isolate 205y” value (Hydrocarbon 5% (v/v)) was “++”. For the same compound, the “Growth of isolate 205y” value (Hydrocarbon 10% (v/v)) was “+++”, the “Growth of isolate 205y” value (Hydrocarbon 25% (v/v)) was “++” and the “Growth of isolate 205y” value (Hydrocarbon 50% (v/v)) was “++”. For the same compound, the “Growth of isolate 205y” value (Hydrocarbon 75% (v/v)) was “++”.
